In publication PMC4947123:

B1: bioGFP-tagged OPTN wild-type [modified: biotin on the bio tag (co-transfected biotin ligase BirA); biotin on the bio tag (co-transfected biotin ligase BirA)] [not stated] / TBC1 domain family member 15 (Tbc1d15) [mouse … (parent)
chain 1: MSHQPLSCLTEKEDSPSESTGNGPPHLAHPNLDTFTPEELLQQMKELLTENHQLKEAMKLNNQAMKGRFEELSAWTEKQKEERQFFEIQSKEAKERLMALSHENEKLKEELGKLKGKSERSSEDPTDDSRLPRAEAEQEKDQLRTQVVRLQAEKADLLGIVSELQLKLNSSGSSEDSFVEIRMAEGEAEGSVKEIKHSPGPTRTVSTGTALSKYRSRSADGAKNYFEHEELTVSQLLLCLREGNQKVERLEVALKEAKERVSDFEKKTSNRSEIETQTEGSTEKENDEEKGPETVGSEVEALNLQVTSLFKELQEAHTKLSEAELMKKRLQEKCQALERKNSAIPSELNEKQELVYTNKKLELQVESMLSEIKMEQAKTEDEKSKLTVLQMTHNKLLQEHNNALKTIEELTRKESEKVDRAVLKELSEKLELAEKALASKQLQMDEMKQTIAKQEEDLETMTILRAQMEVYCSDFHAERAAREKIHEEKEQLALQLAVLLKENDAFEDGGRQSLMEMQSRHGARTSDSDQQAYLVQRGAEDRDWRQQRNIPIHSCPKCGEVLPDIDTLQIHVMDCII
chain 2: MAAAGVVSGKIIYEQEGVYIHSSCGKANDQDSLISGILRVLEKDAEVIVDWRPLDDALDSSSILCAGKDSSSVVEWTQAPKERAHRGSDQQSSYEAEWDMVTTVSFKKKPHTNGDAPGHRNGKSKWSFLFSLADLKSVKQSKEGMGWSYLVFCLKDDVMLPALHFHQGDSKLLIESLEKYVVLCESPQDSRTLLVNCQNKSLSQSFENLLDEPAYGLIQKIKKDPYTATMVGFSKVTNYIFDSLRGSDPSTHQRPPSEMADFLSDAIPGLKINQQEEPGFEVITRIDLGERPVVQRREPVSLEEWNKSLDPEGRLVAVESMKQKIFRGGLSHSLRKQAWKFLLGYFPWDSTKEERTQLQKQKTDEYFRMKLQWKSVSEAQEKRNSRLRDYRSLIEKDVNRTDRTNKFYEGQDNPGLILLHDILMTYCMYDFDLGYVQGMSDLLSPLLYVMENEVDAFWCFASYMDQMHQNFEEQMQGMKTQLIQLSTLLRLLDSGFCSYLESQDSGYLYFCFRWLLIRFKREFSFLDILRLWEVMWTELPCKNFHLLLCCAILESEKQQIMAKHYGFNEILKHINELSMKIDVEDILCKAEAISLQMAQCKELPQAVCEILGLQDSEITTPDSDTDENVGSPCPVSAFPSSTLPILAASEAKDDSPTQTLASPNACRLTPA
B2: bioGFP-tagged OPTN wild-type [modified: biotin on the bio tag (co-transfected biotin ligase BirA); biotin on the bio tag (co-transfected biotin ligase BirA)] [not stated] / ATPase WRNIP1 (Wrnip1) [mouse (endogenous in (parent)
chain 1: B1 chain 1
chain 2: MEVSGPEDDPFLSQLHQVQCPVCQQMMPAAHINSHLDRCLLLHPAGHAEPAAGSHRAGERAKGPSPPGAKRRRLSESSALKQPATPTAAESSEGEGEEGDDGGETESRESYDAPPTPSGARLIPDFPVARSSSPARKGMGKRPAAAAAAGSASPRSWDEAEAQEEEEAGVDGDGDADVDGEDDPGHWDADAADASFGVSAGRAHPRALAAEEIRQMLEGKPLADKMRPDTLQDYIGQSRAVGQETLLRSLLEANEIPSLILWGPPGCGKTTLAHIIANNSKKHSIRFVTLSATNAKTNDVRDVIKQAQNEKSFFKRKTILFIDEIHRFNKSQQDTFLPHVECGTITLIGATTENPSFQVNAALLSRCRVIVLEKLPVEAMVTILMRAINSLGIHVLDSSRPTDPLSHSSNCSSEPSVFIEDKAVDTLAYLSDGDARTGLNGLQLAVLARLSSRKVFCKKSGQTYSPSRVLITENDVKEGLQRSHILYDRAGEEHYNCISALHKAMRGSDQNASLYWLARMLEGGEDPLYVARRLVRFASEDIGLADPSALAQAVAAYQGCHFIGMPECEVLLAQCVVYFARAPKSIEVYSAYNNVKACLRSHQGPLPPVPLHLRNAPTRLMKDLGYGKGYKYNPMYSEPVDQDYLPEELRGVDFFKQRRC
B3: bioGFP-tagged OPTN wild-type [modified: biotin on the bio tag (co-transfected biotin ligase BirA); biotin on the bio tag (co-transfected biotin ligase BirA)] [not stated] / IgE-binding protein (Iap) [mouse (endogenous in (parent)
chain 1: B1 chain 1
chain 2: MALQVMFGLEFFLVLEALLFLFTCYQVVKAGRILDEIQDKLSEVKRGERVGTKRKYGTQNKYTGLSKGLEPEEKLRLGRNTWREIRRKRGKREKKKDQLAEVSRKRSLCSSLDGLGKPALSSSEAGEESSSEETDWEEEAAHYQPANWSRKKPKAAGEGQFADWPQGSRLQGPPYAESPPCVVRQQCAERCAERQCAERQCADSFIPREEQRKIQQAFPVFEGAEGGRVHAPVEYLQIKEIAESVRKYGTNANFTLVQLDRLAGMALTPADWQTVVKAALPSMGKYMEWRALWHEAAQAQARANAAALTPEQRDWTFDLLTGQGAYSADQTNYHWGAYAQISSTAIRPGRRSRAGETTGQLTKIIQGPQESFSDFVARMTEAAERIFGESEQAAPLIEQLIYEQATKECRAVHSPKKEQRLTRLAQGLSRAWGKPRLLKTDNGPAYTSQKFQQFCRQMDVTHLTGLPYNPQGQGIVERAHRTLKAYLIKQKRGTFEETVPRAPRVSVSLALFTLNFLNIDAHGHTAAERHVQSQIGPMRWLNGKMSLIINGMARILS
B4: bioGFP-tagged OPTN wild-type [modified: biotin on the bio tag (co-transfected biotin ligase BirA); biotin on the bio tag (co-transfected biotin ligase BirA)] [not stated] / E3 ubiquitin-protein ligase RNF31 (Rnf31) [mouse … (parent)
chain 1: B1 chain 1
chain 2: MPGDEERGFLAAREELASALRWDSAQVFPLEQLMPLLATSLPPAARYLQLDAGRLVRCNAHGEPRNYLNTLSTALNILEKYGRNLLSPQRPRYWRSVKFNNPVFRSTVDAVQGGRDVLRLYGYTEERPDGLSFPEGQEEPDEYQVAVVTLEVLLLRTELSLLLQNTHPRQNALDQLLRESVEDGMLQLSEFHPLLREIVPGPRPSAQGSTPGPCFLCGSAPGTLHCPACNQVSCPACDILFHGHPSRAHHLRQALPGSHQTASLSSSLPASSQPRPPSSSLALGDSSLSSPDPANACLPWHCLTCATLNEPWAVFCAVCSQPKGCKVPGIEGSHGTGGLEPEPARDQWACQSCTFENEAAAVLCAICERPRLAQPPSLVVDSHDAGVCQQSLKQEDPLLTAAQPQVWYCDHCTFCNSGPVWVCAMCNRTRDPIPTQPALQSYPSSLEKGRPKPGSSQHLGSSLPASCGDPEKQRQDKMRKEGLQLVSMIQEGETAGASPEEVFSALQYSGTEVPLQWLRSELSYVLEMVAELAGQQDPELGAFSCQEARKAWLDRHGNLDEAVEECVRARRRKVHELQSLGFGPKEGSLQALFQHGGDVARALTELQRQRLEPFHQRLWDRDPEPTPCWDGLDRQSLVRRLLAVYTLPSWGRAELALALLQETPRNYELLDVVEAVRHSQDRAFLRRLLAQECAVCGWALPRNRMQALISCECTICPECFRQHFTIALKEKHITDMVCPACGRPDLTDDAQLLSYFSTLDIQLRESLDPDAYALFHKKLTEAVLMRDPKFLWCAQCSFGFIYEREQLEATCPQCHQTFCVRCKRQWEEQHRGRSCEDFQNWKRTNDPEYQAQGLAMYLQENGIDCPKCKFSYALARGGCMHFHCTQCRHQFCSGCYNAFYAKNKCPDPNCKVKKSLHGHHPRDCLFYLRDWTAARLQKLLQDNNVMFNTEPPAGTRAVPGGGCRVMEQKEVHSGFRDEACGKETPPGYAGLCQAHYKEYLVSLINAHSLDPATLYEVEELETATIRYLHLAPQPADGEDLPAYQARLLQKLREEVPLGQSIARRRK
B5: bioGFP-tagged OPTN wild-type [modified: biotin on the bio tag (co-transfected biotin ligase BirA); biotin on the bio tag (co-transfected biotin ligase BirA)] [not stated] / Pre-mRNA-splicing factor ATP-dependent RNA helicase … (parent)
chain 1: B1 chain 1
chain 2: MSKRHRLDLGEDYPSGKKRAGTDGKDRERDRDREDRSKDRDRERDRGDREREREKEKEKELRASTNAMLISAGLPPLKASHSAHSTHSAHSTHSTHSAHSTHTGHTGHTSLPQCINPFTNLPHTPRYYDILKKRLQLPVWEYKDRFTDILVRHQSFVLVGETGSGKTTQIPQWCVEYMRSLPGPKRGVACTQPRRVAAMSVAQRVADEMDVMLGQEVGYSIRFEDCSSAKTILKYMTDGMLLREAMNDPLLERYGVIILDEAHERTLATDILMGVLKEVVRQRSDLKVIVMSATLDAGKFQIYFDNCPLLTIPGRTHPVEIFYTPEPERDYLEAAIRTVIQIHMCEEEEGDLLLFLTGQEEIDEACKRIKREVDDLGPEVGDIKIIPLYSTLPPQQQQRIFEPPPPKKQNGAIGRKVVVSTNIAETSLTIDGVVFVIDPGFAKQKVYNPRIRVESLLVTAISKASAQQRAGRAGRTRPGKCFRLYTEKAYKTEMQDNTYPEILRSNLGSVVLQLKKLGIDDLVHFDFMDPPAPETLMRALELLNYLAALNDDGDLTELGSMMAEFPLDPQLAKMVIASCDYNCSNEVLSITAMLSVPQCFVRPTEAKKAADEAKMRFAHIDGDHLTLLNVYHAFKQNHESVQWCYDNFINYRSLMSADNVRQQLSRIMDRFNLPRRSTDFTSRDYYINIRKALVTGYFMQVAHLERTGHYLTVKDNQVVQLHPSTVLDHKPEWVLYNEFVLTTKNYIRTCTDIKPEWLVKIAPQYYDMSNFPQCEAKRQLDRIIAKLQSKEYSQY

Variants of: B1
Test: biotin-streptavidin pull-down and mass spectrometry
Conditions: with TBC1 domain family member 15 (Tbc1d15) [mouse (endogenous in N2A)]; N2A cells, triplicate experiments; Welch's t test, S0: 1.5, FDR: 0.01; read off a plot

| screen value | Variant |
| --- | --- |
| 2.6 | chain 1 E478G |

Variants of: B2
Test: as above
Conditions: with ATPase WRNIP1 (Wrnip1) [mouse (endogenous in N2A)]; N2A cells, triplicate experiments; Welch's t test, S0: 1.5, FDR: 0.01; read off a plot

| screen value | Variant |
| --- | --- |
| 3.3 | chain 1 E478G |

Variants of: B3
Test: as above
Conditions: with IgE-binding protein (Iap) [mouse (endogenous in N2A)]; N2A cells, triplicate experiments; Welch's t test, S0: 1.5, FDR: 0.01; read off a plot

| screen value | Variant |
| --- | --- |
| 11 | chain 1 E478G |

Variants of: B4
Test: as above
Conditions: with E3 ubiquitin-protein ligase RNF31 (Rnf31) [mouse (endogenous in N2A)]; N2A cells, triplicate experiments; Welch's t test, S0: 1.5, FDR: 0.01; read off a plot

| screen value | Variant |
| --- | --- |
| 3.2 | chain 1 E478G |

Variants of: B5
Test: as above
Conditions: with Pre-mRNA-splicing factor ATP-dependent RNA helicase DHX15 (Dhx15) [mouse (endogenous in N2A)]; N2A cells, triplicate experiments; Welch's t test, S0: 1.5, FDR: 0.01; read off a plot

| screen value | Variant |
| --- | --- |
| 7.2 | chain 1 E478G |
